Values quoted from earlier work, collected in patent US6509371B1, “Compositions containing Bergamottin for increasing the oral bioavailability of pharmaceutical agents” (Warner-Lambert Company, priority 1997, dated 2003).

The chains behind the UniProt entries cited, without tags or fusion partners.
UniProt P08684, whole entry: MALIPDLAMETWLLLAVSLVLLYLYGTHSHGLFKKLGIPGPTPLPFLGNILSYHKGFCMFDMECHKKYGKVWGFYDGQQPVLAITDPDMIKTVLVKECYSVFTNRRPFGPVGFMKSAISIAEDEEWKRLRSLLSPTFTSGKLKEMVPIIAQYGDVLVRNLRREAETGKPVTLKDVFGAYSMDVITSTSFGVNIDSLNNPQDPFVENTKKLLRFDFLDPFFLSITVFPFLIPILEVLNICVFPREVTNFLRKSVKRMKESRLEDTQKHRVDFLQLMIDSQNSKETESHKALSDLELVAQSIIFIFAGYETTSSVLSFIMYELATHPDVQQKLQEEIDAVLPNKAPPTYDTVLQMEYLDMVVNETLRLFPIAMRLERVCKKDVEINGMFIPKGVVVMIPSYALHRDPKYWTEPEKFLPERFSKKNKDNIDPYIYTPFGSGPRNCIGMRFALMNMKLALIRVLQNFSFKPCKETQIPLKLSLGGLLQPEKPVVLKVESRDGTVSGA

Key:
[1] = cited from earlier work
P450 3A4 = P450 3A4 (Homo sapiens, UniProt P08684); details: in vivo; cited from earlier work

## Medroxyprogesterone
[1]
  Oral Bioavailability: <20%
P450 3A4
  Fraction Metabolized: >90%
